Target: ATP-binding cassette sub-family C member 4 (Homo sapiens, UniProt O15439)
Type: functional, cell-based, HEK293

Sequences of proteins named here, by UniProt entry; tags and fusion partners are left off. A change or cut given only in a name is not applied to a line headed by its entry.
UniProt O15439: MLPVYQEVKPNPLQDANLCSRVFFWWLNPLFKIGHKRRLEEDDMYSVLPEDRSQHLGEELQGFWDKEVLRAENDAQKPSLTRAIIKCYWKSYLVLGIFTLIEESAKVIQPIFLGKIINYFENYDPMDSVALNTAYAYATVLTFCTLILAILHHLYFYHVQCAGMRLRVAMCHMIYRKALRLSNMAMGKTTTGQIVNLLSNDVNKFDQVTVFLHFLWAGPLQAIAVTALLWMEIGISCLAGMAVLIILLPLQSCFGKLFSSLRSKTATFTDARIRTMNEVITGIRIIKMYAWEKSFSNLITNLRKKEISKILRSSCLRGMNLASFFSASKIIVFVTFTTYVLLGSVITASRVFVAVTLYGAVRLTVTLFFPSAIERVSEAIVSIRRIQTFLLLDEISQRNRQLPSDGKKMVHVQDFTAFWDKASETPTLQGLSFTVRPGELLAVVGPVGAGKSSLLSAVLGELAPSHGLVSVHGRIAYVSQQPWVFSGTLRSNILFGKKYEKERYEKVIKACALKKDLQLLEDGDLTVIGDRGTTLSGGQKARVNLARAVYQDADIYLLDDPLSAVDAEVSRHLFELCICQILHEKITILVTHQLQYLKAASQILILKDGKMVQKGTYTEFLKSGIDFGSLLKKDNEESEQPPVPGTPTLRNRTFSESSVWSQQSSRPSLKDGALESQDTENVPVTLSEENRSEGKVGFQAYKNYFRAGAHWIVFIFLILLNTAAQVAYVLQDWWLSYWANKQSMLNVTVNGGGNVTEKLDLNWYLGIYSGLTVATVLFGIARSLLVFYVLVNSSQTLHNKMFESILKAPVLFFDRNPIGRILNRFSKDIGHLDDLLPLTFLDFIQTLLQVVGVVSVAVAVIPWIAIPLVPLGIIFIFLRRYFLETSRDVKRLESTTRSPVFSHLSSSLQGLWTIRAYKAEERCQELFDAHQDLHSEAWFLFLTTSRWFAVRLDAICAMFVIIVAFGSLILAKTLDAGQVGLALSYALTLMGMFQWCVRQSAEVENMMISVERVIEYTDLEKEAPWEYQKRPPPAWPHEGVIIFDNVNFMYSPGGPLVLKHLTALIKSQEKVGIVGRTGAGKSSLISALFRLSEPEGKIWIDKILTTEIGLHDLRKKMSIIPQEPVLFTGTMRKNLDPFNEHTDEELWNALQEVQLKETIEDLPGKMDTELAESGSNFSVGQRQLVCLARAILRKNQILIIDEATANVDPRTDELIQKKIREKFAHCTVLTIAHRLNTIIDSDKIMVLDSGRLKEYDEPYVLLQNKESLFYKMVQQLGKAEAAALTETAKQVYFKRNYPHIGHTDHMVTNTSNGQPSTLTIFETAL

In the case of `CN(C)C(=O)CCSC(SCCC(=O)O)c1cccc(/C=C/c2ccc3ccc(Cl)cc3n2)c1` (stereo unspecified) [MK-571], the IC50 is reported as 10 µM.

Source: ChEMBL document CHEMBL2074007, “Characterization of the transport of nucleoside analog drugs by the human multidrug resistance proteins MRP4 and MRP5” (Mol Pharmacol, 2003)
